Values quoted from earlier work as cited in US5206220A (Research Corporation Technologies, Inc., priority 1991, dated 1993).

Settings: mice, 10 mmol/kg body weight; cited from earlier work

Substance: cyst(e)ine
- toxicity, single intraperitoneal dose: neurotoxic
